# Laboratory results published in ChEMBL document CHEMBL5506067, “Searching for Synthetic Opioid Rescue Agents: Identification of a Potent Opioid Agonist with Reduced Respiratory Depression” (J Med Chem, 2024).
# Amino acid sequences for entries named in this document (tags omitted).
# UniProt P41143, whole entry, looked up: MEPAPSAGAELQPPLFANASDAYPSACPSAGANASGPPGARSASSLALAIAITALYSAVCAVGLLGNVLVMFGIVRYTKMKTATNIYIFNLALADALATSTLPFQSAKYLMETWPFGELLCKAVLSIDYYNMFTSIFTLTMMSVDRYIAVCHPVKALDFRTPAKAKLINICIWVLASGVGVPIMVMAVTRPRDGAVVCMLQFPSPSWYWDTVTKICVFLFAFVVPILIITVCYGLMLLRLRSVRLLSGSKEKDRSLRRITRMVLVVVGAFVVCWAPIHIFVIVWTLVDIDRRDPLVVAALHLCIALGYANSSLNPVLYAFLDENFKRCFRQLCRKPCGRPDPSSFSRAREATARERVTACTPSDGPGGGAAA
# UniProt P35372, whole entry, looked up: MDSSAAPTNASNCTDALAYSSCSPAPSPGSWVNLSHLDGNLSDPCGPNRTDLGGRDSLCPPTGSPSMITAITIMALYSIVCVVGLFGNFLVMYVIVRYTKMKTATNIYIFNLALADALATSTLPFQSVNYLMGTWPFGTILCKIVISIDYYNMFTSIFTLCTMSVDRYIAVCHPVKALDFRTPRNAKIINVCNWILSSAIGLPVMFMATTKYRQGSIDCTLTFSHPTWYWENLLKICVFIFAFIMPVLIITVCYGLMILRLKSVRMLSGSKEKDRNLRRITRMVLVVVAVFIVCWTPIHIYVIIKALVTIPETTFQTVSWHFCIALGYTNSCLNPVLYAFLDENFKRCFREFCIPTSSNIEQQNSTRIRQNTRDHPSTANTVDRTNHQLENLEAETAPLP
# Experiments:
# [1] = target: Delta-type opioid receptor (Homo sapiens, UniProt P41143); conditions: cho-k1
# Mu-type opioid receptor = Mu-type opioid receptor (Homo sapiens, UniProt P35372); conditions: cho-k1
compound,measurement,setting,value
CN(C)[C@]1(c2ccccc2)CC[C@]2(CC1)OCCc1c3cc(F)ccc3[nH]c12,IC50,[1],3.77 nM
same,EC50,Mu-type opioid receptor,11.3 nM
